Experimental data taken from patent publication US20210114973A1, “PHARMACEUTICAL FORMULATIONS” (First Wave Bio, Inc., priority 2019, published 2021).

Experiment: Effect of particle size on colonic exposure levels: single rectal dose of niclosamide suspension, blood and rectal mucosa samples
Settings: rabbit, colon tissue, other: rectal, 7.5 mg

concentration at 1 h: 5030 ng/mL
Compound: O=C(Nc1ccc([N+](=O)[O-])cc1Cl)c1cc(Cl)ccc1O [milled niclosamide, 5-chloro-N-(2-chloro-4-nitrophenyl)-2-hydroxybenzamide]
